Yeast mating assay B: variants of the scFv Ab-14

Values reported by Li et al. 2023, doi:10.1038/s41467-023-39022-2 (FLAb copy).

Antigen: PDVDLGDISGINAS, a 14-residue peptide of the SARS-CoV-2 spike HR2 region.

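The variants were designed computationally from a first round of random CDR variants and then made and measured. Group labels follow the data file (Ctrl: baseline library sampled from a position-specific scoring matrix, with some repeated check sequences; Rand: our label for a block that the file lists under HC and that is probably the random mutants of the ten best first-round binders; En: ensemble of fine-tuned language models; GP: Gaussian process model; HC: hill climbing; Gen: genetic algorithm; Gibbs: Gibbs sampling; a sequence that several methods proposed may carry one label only). The assay is AlphaSeq: two haploid yeast populations carry antibody and antigen on their surface. After mating in shaken culture at 30 °C for 16 h, diploids were selected and their barcode pairs sequenced. Each replicate has its own calibration line, from reference interactions of the BCL2 family. Mating was done six times.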

Parent: Ab-14, a human scFv built as VH, a 15-residue (Gly4Ser)3 linker, VL. Only the CDRs of the light chain vary.
VH: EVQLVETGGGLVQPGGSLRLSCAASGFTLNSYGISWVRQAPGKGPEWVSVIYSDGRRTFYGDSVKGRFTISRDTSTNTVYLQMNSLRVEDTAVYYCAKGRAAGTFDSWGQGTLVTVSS
VL: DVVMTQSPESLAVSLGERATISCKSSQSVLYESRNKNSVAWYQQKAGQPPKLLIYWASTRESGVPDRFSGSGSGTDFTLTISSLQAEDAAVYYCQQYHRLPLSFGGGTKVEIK

Variants are written as CDR1, CDR2 and CDR3 of the light chain (limits as in the source). Parent: KSSQSVLYESRNKNSVA, WASTRES, QQYHRLPLS. Values are log10 of the apparent Kd in nM; lower means stronger binding. Replicates are averaged; those with no signal do not enter the mean. "not detected" means that the variant was in the library but no mating with the target was seen in any replicate; the authors take this as a sign of poor binding, and no number exists. The range of this assay differs from that of the first round, and the authors advise against merging the two.

CDR-L1	CDR-L2	CDR-L3	group	mean log10 Kd (nM)	replicates with signal	empty controls
KFFQSQLYEQRNQNNVA	SASTRED	QQYHRLPLS	GP_Gibbs	-0.20	6/6	0/18
IVSQLMLWGMHAKNSIA	EAEMRTN	QQYDRLPLI	En_Gen	not detected	0/6	0/18
KIYAATMLETHDKNSIA	DLTNRGN	QQYHRLPLS	En_HC	1.48	6/6	0/18
KTSQSVLYESRNPNSVA	WASTRES	QQKHREPLS	Ctrl	1.84	3/6	1/18
KLLQEVTGHMRNRNSVA	HNSTRED	QQYDRLPLI	En_HC	3.21	2/6	0/18
KLQQSELMEERNSNSVA	SASLRES	QQYHRLPLS	GP_Gibbs	0.12	6/6	3/18
HMSTLTLMGMRQRNSVA	QMTTREN	QQYDRLPLA	En_Gen	1.09	6/6	1/18
KSSQSVLTESRNKNSVA	WGSTRLS	QQYHRLPLS	Ctrl	0.56	1/6	0/18
KSSQSVLYESPNKNSVA	WASHRAS	QQYHRLPNS	Ctrl	not detected	0/6	2/18
IITQSVMQESRNKSNVA	NTSERES	QQYERLPLI	En_HC	1.81	5/6	0/18
KFSQSYLYESRNKNAVA	QASTRES	QQYHRLPLS	Ctrl	-0.41	6/6	1/18
KVSPSELYESRNKNSVA	EASTREE	QQYHRLPLS	GP_Gen	-0.24	6/6	0/18
KISFQYRYEQLSKNSIA	EAQTRLK	QQYHRLPLS	En_HC	0.73	6/6	1/18
KLQQSQLYESRNKNSVA	HASTRCS	QQYHRLPLS	GP_Gen	0.33	6/6	0/18
KSSQSVLYESRNKNSVA	DASCRES	QQYHRLPLS	Ctrl	0.32	6/6	1/18
KSSWSVLQESRNKNSVA	DASTRSS	QQYHRLPLS	GP_HC	0.20	6/6	0/18
KLSQSHLYESRNKNSVA	NASQRES	QQYHRLPLS	GP_Gen	0.08	6/6	1/18
TISQMFLGESRNRNSVA	QASTRFS	QSYDRLPLS	En_HC	1.00	6/6	1/18
KSSQSFLYESRNANSVA	GASTRES	QQYHRLTLS	Rand	2.61	6/6	0/18
KISQLVNFLGKNKNSVA	QMSTREA	QQYDRLPLS	En_HC	0.67	6/6	1/18
KSQQSWLYESRNKNSVA	NASQRLS	QQYHRLPLS	GP_Gen	0.01	6/6	0/18
KVSQGVWYESRNKNSVA	WASTRES	QQYHRLPLS	GP_Gibbs	0.97	6/6	2/18
KESQSVLPEWRNKNSVA	DASTRES	QQYHRLPLS	GP_HC	-0.09	6/6	1/18
ALNQKGFQLSGMRDSIA	HSDIRLA	QQYYHLPLA	En_Gibbs	0.36	6/6	0/18
MISQLYNMGQFAINSVA	QASVRNA	QQYDRLPLM	En_Gen	1.48	6/6	0/18
KQSQSVLYESRNSNSVA	DASTRES	QQYHRLPLS	Rand	-0.26	6/6	2/18
KSSESVLYESNNFNSVA	WASTRES	QQYHRLPLS	Ctrl	1.31	4/6	1/18
SLMQVDGYLSNNKNSIA	DLRTRES	QQYHRLPLS	En_HC	0.23	6/6	0/18
KIGHAVTGTSRKGNSVA	QAETRLD	QQYHRLPLM	En_HC	0.71	6/6	1/18
LISSVWDYGSRNYNSVA	QTSTREK	QQYDRLPLE	En_HC	0.25	6/6	0/18
KLSQSVLYESRNKNSVA	NASYRLS	QQYHRLPLS	GP_Gen	0.63	6/6	1/18
MMSQVTGLGQRHRNNVA	QTSTREP	QQYDRLPLI	En_Gen	0.69	6/6	3/18
KISASVNYEMVNGQSVA	QMSTREK	QQYDRLPLS	En_HC	0.88	6/6	2/18
KITGMWTFESRNRNNIA	EESTRED	QSYHRLPLS	En_HC	0.48	4/6	0/18
KSLTSALYESANKNSVA	WASTREV	QQYHRLPLS	Ctrl	2.15	1/6	0/18
KLVPSELYESRQSNSVA	NASYRES	QQYHRLPLS	GP_Gibbs	0.08	6/6	0/18

The remaining entries, values ahead:

mean log10 Kd (nM)	replicates with signal	empty controls	CDR-L1	CDR-L2	CDR-L3	group
-0.19	6/6	0/18	KLSQSVLYESRNTNSVA	NASTRES	QQYHRLPLS	GP_Gen
0.23	6/6	3/18	KWQQSWLQSSRNKNSVA	NASERES	QQYHRLPLS	GP_Gibbs
0.31	6/6	2/18	VMQIQSDGMLNAKHNVA	GVDTRLE	QHYFRLPLL	En_Gibbs
0.03	6/6	0/18	SVFMELAMEKNSYRNIA	DASMRLA	QQYVRLPLG	En_Gibbs
1.92	4/6	0/18	KSSQKVLYESRNKNSVA	WASTRES	QQYMRLPLS	Ctrl
not detected	0/6	0/18	KSSQSVLYYSRNKNSVA	WASTRES	QVYHRNPLS	Ctrl
1.53	1/6	0/18	KSSQSWLYESRNKNSVA	GASACEV	QQYHRLPLS	Rand
-0.54	6/6	2/18	KIPQSVLYESRNKNSVA	NASTRES	QQYHRLPLS	GP_Gen
0.39	6/6	0/18	KSSQSVLYESRNKNSVA	KASTRES	QQYHRLPLA	Ctrl
1.89	1/6	0/18	KSVQSVLYESRNKNSVA	KASEREI	QQYHRLPHS	Ctrl
0.99	6/6	0/18	MMSQVTGQGTRHRNNVA	QTSTREP	QQYDRLPLI	En_Gen
0.10	6/6	0/18	KSSQSELYESRNKNSVA	NASQREQ	QQYHRLPLS	GP_Gen
-0.46	6/6	0/18	KLDQSVLYESRNKNSVA	DASTRES	QQYHRLPLS	GP_Gen
1.36	2/6	0/18	ILSQSVMMGMHLKNSVA	QATMRFN	QQYHRLPLM	En_HC
0.42	6/6	1/18	KVQQSELYESRNKNSVA	NASTRCS	QQYHRLPLS	GP_Gen
not detected	0/6	0/18	MMSMGYLGGMRAKNNVA	QEETRES	QQYHRLPLI	En_HC
0.65	6/6	2/18	QIDHPELSFQQNQYSIA	NASQSLD	QQYAQLPLM	En_Gibbs
1.55	6/6	1/18	IVSQLMLWGMHVKNSIA	EAQTRLN	QQYDRLPLM	En_Gen
0.07	6/6	2/18	HSSPSELYESRNKNSVA	NASTRES	QQYHRLPLQ	GP_HC
2.48	3/6	0/18	KSSISYLYESLNTNSVA	EASTRES	QQYHRLPLS	GP_HC
0.69	6/6	0/18	MFSQLFMYGSRNPNSVA	QASTRES	QQYDRLPLI	En_HC
not detected	0/6	1/18	KSSKSFLYESRNKNSVA	WAATRES	QQYHRLPLS	Ctrl
1.46	6/6	0/18	KLSCSWLMESRNSNSVA	HASKRMS	QQYHRLPLS	GP_Gibbs
1.26	6/6	0/18	NVNVSEDQWPSSKNAIA	QTTCRNL	QQYASLPLS	En_Gibbs
0.77	6/6	3/18	KISGSYLGLSRNWNAVA	HASTREQ	QQYHRLPLS	GP_Gibbs
0.28	6/6	0/18	KCKQSSDYESRNFNSVA	NASTRCS	QQYHRLPLS	GP_Gibbs
-0.04	6/6	1/18	KLQQSELYESRNKNSVA	GASTRES	QQYHRLPLS	GP_Gen
-0.11	6/6	2/18	KFSQGYMYEQRNKNSVA	NASQRES	QQYHRLPLS	GP_Gibbs
0.07	6/6	0/18	KSMQSVLYESGNKNSVA	QASFREE	QQYHRLPLS	Ctrl
-0.05	6/6	1/18	KSSTSQEYEDRNFNSVA	HASTREE	QQYHRLPLS	GP_Gibbs
not detected	0/6	0/18	KSSQSVETEDRNKNSVA	WASTRES	QQYHRLPLS	Ctrl
0.48	6/6	0/18	KLSQSVLYESRNKNSVA	NASTRES	QMYHRLPLS	GP_Gen
0.27	6/6	1/18	NMKVGLNFGDIQHQAIA	EVEKRES	QQYARLPLT	En_Gibbs
1.02	6/6	2/18	MISQLMNMGTFAINSVA	QASIRNS	QQYDRLPLI	En_Gen
2.86	4/6	1/18	KISQMVRVGSTHNNSIA	EEATRAK	QQYHRLPLA	En_Gen
0.00	6/6	0/18	KLEQSQLYESRNKNSVA	NASTRED	QQYHRLPLS	GP_Gen

Three control strains display no target. For all light chain designs, 4% of the pairings with them gave a signal, with a median of 2.64 and one signal in twenty below 1.59, so weak values seen in few replicates may be background. For each scFv, signals with the empty controls are counted beside the result. The authors' rule: three or more of the six replicates give a measured affinity, fewer mean a poor binder.